Tested on: SD rat islets
Assay: Perifusion of rat islets, GSIS
Assay type: cell-based
Details: step-wise or gradient assays

## CC[C@H](C)[C@H](NC(=O)[C@H](CO)NC(=O)[C@H](Cc1ccc(O)cc1)NC(=O)[C@H](CC(=O)O)NC(=O)[C@H](CO)NC(=O)[C@@H](NC(=O)[C@H](Cc1ccccc1)NC(=O)[C@@H](NC(=O)CNC(=O)[C@H](CCC(=O)O)NC(=O)[C@H](C)NC(=O)[C@@H](N)Cc1ccc(O)cc1)[C@@H](C)O)[C@@H](C)CC)C(=O)N[C@@H](C)C(=O)N[C@@H](CCSC)C(=O)N[C@@H](CC(=O)O)C(=O)N[C@@H](CCCCN)C(=O)N[C@H](C(=O)N[C@@H](Cc1c[nH]cn1)C(=O)N[C@@H](CCC(N)=O)C(=O)N[C@@H](CCC(N)=O)C(=O)N[C@@H](CC(=O)O)C(=O)N[C@@H](Cc1ccccc1)C(=O)N[C@H](C(=O)N[C@@H](CC(N)=O)C(=O)N[C@@H](Cc1c[nH]c2ccccc12)C(=O)N[C@@H](CC(C)C)C(=O)N[C@@H](CC(C)C)C(=O)N[C@@H](C)C(=O)N[C@@H](CCC(N)=O)C(=O)N[C@@H](CCCCN)C(=O)NCC(=O)N[C@@H](CCCCN)C(=O)N[C@@H](CCCCN)C(=O)N[C@@H](CC(N)=O)C(=O)N[C@@H](CC(=O)O)C(=O)N[C@@H](Cc1c[nH]c2ccccc12)C(=O)N[C@@H](CCCCN)C(=O)N[C@@H](Cc1c[nH]cn1)C(=O)N[C@@H](CC(N)=O)C(=O)N[C@H](C(=O)N[C@H](C(=O)N[C@@H](CCC(N)=O)C(=O)O)[C@@H](C)O)[C@@H](C)CC)C(C)C)[C@@H](C)CC [GIP]
  potency relative to GLP-1 to potentiate GSIS: at least 3 fold

Source: article PMC7445463 (Diabetologia, 2020)
